Reference: ChEMBL document CHEMBL1130213, “Synthesis and pharmacological characterization of aminocyclopentanetricarboxylic acids: new tools to discriminate between metabotropic glutamate receptor subtypes” (J Med Chem, 1997)

By UniProt entry, the sequences of proteins in these tests, tags left out. Where a name states a change or a piece, a line headed by the entry shows the natural chain unless it says otherwise.
UniProt Q14833: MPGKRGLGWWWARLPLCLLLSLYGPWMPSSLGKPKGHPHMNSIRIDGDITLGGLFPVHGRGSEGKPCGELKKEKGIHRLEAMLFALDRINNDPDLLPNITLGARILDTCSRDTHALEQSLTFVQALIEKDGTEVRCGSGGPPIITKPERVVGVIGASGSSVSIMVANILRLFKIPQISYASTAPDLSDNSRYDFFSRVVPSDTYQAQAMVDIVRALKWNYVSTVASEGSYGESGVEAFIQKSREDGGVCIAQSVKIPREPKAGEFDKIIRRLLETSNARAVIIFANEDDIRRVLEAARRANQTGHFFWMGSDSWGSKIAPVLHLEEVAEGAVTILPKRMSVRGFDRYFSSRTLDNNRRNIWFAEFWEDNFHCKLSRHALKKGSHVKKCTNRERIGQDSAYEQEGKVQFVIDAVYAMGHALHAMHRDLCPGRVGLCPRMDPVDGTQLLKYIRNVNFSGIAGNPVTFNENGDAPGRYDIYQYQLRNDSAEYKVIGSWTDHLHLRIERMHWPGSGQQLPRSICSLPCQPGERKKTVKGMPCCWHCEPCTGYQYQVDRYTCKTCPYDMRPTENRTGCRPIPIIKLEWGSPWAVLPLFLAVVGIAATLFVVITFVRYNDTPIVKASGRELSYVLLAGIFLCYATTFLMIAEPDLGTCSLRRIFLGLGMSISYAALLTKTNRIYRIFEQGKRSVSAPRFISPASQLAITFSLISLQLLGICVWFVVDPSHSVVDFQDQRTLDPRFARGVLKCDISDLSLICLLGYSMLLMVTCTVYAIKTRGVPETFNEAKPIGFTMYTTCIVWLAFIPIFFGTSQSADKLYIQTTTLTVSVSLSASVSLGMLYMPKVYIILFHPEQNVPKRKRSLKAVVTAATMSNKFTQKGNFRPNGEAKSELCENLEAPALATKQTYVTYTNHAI
UniProt Q13255: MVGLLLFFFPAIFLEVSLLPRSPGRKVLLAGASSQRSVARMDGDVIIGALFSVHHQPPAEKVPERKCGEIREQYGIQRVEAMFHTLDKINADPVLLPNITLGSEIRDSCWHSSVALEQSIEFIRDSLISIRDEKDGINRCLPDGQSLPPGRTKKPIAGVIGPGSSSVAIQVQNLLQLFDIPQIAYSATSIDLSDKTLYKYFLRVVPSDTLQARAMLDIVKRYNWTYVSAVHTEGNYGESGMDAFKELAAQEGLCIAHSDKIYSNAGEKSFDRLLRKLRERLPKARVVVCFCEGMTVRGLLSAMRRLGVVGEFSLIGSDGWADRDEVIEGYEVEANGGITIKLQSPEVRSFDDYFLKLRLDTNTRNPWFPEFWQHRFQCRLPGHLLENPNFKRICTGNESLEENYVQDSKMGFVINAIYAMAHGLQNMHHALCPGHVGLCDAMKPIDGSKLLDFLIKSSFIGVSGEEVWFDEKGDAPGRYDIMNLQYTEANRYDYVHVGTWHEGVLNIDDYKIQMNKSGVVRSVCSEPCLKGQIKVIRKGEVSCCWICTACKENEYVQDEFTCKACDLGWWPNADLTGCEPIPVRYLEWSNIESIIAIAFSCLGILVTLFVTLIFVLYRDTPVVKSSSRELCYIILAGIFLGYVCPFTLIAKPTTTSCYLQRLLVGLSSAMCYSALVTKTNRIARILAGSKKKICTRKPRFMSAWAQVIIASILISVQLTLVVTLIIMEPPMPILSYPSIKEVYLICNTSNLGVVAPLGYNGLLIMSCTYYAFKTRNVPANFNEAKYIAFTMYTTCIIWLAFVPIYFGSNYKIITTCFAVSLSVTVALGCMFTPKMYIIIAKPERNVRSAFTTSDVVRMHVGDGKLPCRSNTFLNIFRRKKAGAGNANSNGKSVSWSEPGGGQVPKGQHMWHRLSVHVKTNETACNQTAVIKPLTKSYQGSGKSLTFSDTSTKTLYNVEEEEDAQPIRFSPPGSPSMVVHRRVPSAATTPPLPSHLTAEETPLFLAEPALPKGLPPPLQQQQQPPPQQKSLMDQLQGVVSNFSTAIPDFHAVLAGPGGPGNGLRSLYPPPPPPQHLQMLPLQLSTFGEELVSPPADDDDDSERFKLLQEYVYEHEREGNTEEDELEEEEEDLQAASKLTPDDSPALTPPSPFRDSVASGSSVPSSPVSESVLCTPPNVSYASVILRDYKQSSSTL

Columns and labels:
[1] = molecular target: Metabotropic glutamate receptor 4 (Homo sapiens, UniProt Q14833); assay: Agonist activity against Metabotropic glutamate receptor 4 expressed in HEK 293 cells was evaluated by measuring total inositol phosphate accumulation; assay type: functional, cell-based, HEK293
[2] = molecular target: Metabotropic glutamate receptor 1 (Homo sapiens, UniProt Q13255); assay: Agonist activity against Metabotropic glutamate receptor 1 expressed in HEK 293 cells was evaluated by measuring total inositol phosphate accumulation; assay type: functional, cell-based, HEK293

Row | Compound | EC50 [1] [µM] | EC50 [2] [µM]
1 | N[C@@]1(C(=O)O)CC[C@@H](C(=O)O)C1 | > 1000 | 9.3
2 | N[C@]1(C(=O)O)CC[C@@H](C(=O)O)C1 |  | > 1000
3 | N[C@]1(C(=O)O)CC[C@H](C(=O)O)C1 | > 1000 | 127
4 | N[C@@]1(C(=O)O)CC[C@H](C(=O)O)C1 | 48 | > 300
